# AlphaSeq binding of Ab-95 light chain variants to a spike HR2 peptide

Reference: Engelhart et al. 2022, doi:10.1038/s41597-022-01779-4. File: FLAb, binding data.

Antigen: PDVDLGDISGINAS, a 14-residue peptide of the SARS-CoV-2 spike HR2 region.

The variants keep the heavy chain, the linker and the frameworks of Ab-95 (scFv order VH, a 15-residue (Gly4Ser)3 linker, VL).
VH: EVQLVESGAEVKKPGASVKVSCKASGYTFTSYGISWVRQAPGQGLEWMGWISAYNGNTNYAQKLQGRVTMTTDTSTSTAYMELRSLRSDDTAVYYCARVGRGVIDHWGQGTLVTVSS
VL: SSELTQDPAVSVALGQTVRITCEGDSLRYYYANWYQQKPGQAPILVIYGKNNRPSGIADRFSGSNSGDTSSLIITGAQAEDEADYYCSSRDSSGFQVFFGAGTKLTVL

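The parent was found by panning a naive human phage display library on the peptide. The library (AAYL52) carries one to three amino acid substitutions per variant, with no insertions or deletions. The assay is AlphaSeq: two haploid yeast populations carry antibody and antigen on their surface. Binding brings cells together so that they mate, and sequencing counts the barcode pairs among the diploids. Scores were corrected for input abundance and mapped to Kd with protein pairs of known affinity run in the same pool. There are three technical replicates.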

Changes read parent residue, position, new residue, counted from the first residue of the VL shown. The read-out is the apparent dissociation constant on a log10 scale (nM): the lower, the stronger. The mean shown is taken over the replicates in which the pair was detected. A pair that was not seen in any replicate is written "not detected"; this usually means weak binding, but a binder can also be missed. In this assay the parent's reference entry averaged 2.31; its copy inside this library read 2.25.

{"changes": "N33R+K50C", "log10 Kd (nM), mean": "4.76", "seen in": "2/3"}
{"changes": "D25H+N52C+R90M", "log10 Kd (nM), mean": "4.07", "seen in": "3/3"}
{"changes": "E23H+P54W+S92V", "log10 Kd (nM), mean": "2.57", "seen in": "2/3"}
{"changes": "R28G+P54K+F98V", "log10 Kd (nM), mean": "4.01", "seen in": "3/3"}
{"changes": "S26P+Y29L+S92E", "log10 Kd (nM), mean": "3.47", "seen in": "2/3"}
{"changes": "G49H+N51E+S89M", "log10 Kd (nM), mean": "not detected", "seen in": "0/3"}
{"changes": "S26N+Y29H+Q96R", "log10 Kd (nM), mean": "3.97", "seen in": "3/3"}
{"changes": "N51I+S88K+G94Y", "log10 Kd (nM), mean": "3.81", "seen in": "1/3"}
{"changes": "P54S+R90V+V97E", "log10 Kd (nM), mean": "3.26", "seen in": "2/3"}
{"changes": "S26E+R28H+K50C", "log10 Kd (nM), mean": "4.17", "seen in": "3/3"}
{"changes": "G49Q+D91L+S93M", "log10 Kd (nM), mean": "3.61", "seen in": "2/3"}
{"changes": "K50N+R90Q+Q96R", "log10 Kd (nM), mean": "1.38", "seen in": "3/3"}
{"changes": "A32L+N33V+S88R", "log10 Kd (nM), mean": "not detected", "seen in": "0/3"}
{"changes": "Y30I+R90F+G94C", "log10 Kd (nM), mean": "4.17", "seen in": "1/3"}
{"changes": "G49M+N52M+Q96R", "log10 Kd (nM), mean": "not detected", "seen in": "0/3"}
{"changes": "Y29A+G49T+F98P", "log10 Kd (nM), mean": "3.52", "seen in": "3/3"}
{"changes": "G24W+Y31H+V97C", "log10 Kd (nM), mean": "1.34", "seen in": "3/3"}
{"changes": "R28L+G49I+R53T", "log10 Kd (nM), mean": "not detected", "seen in": "0/3"}
{"changes": "K50R+P54M+V97G", "log10 Kd (nM), mean": "2.94", "seen in": "3/3"}
{"changes": "A32E+G49K+D91N", "log10 Kd (nM), mean": "3.91", "seen in": "1/3"}
{"changes": "A32V+S55M+S88N", "log10 Kd (nM), mean": "3.23", "seen in": "3/3"}
{"changes": "D25S+Y29G+S55C", "log10 Kd (nM), mean": "1.13", "seen in": "3/3"}
{"changes": "Y30S+K50W+D91T", "log10 Kd (nM), mean": "2.14", "seen in": "3/3"}
{"changes": "D25Y+V97I+F98P", "log10 Kd (nM), mean": "2.43", "seen in": "3/3"}

A selection of 4 entries from above:

changes	log10 Kd (nM), mean	seen in
D25H+N52C+R90M	4.07	3/3
A32L+N33V+S88R	not detected	0/3
D25Y+V97I+F98P	2.43	3/3
A32E+G49K+D91N	3.91	1/3

Three control strains display no target. For library AAYL52, 28% of the pairings with them gave a signal, with a median of 3.91 and one signal in twenty below 2.90, so weak values seen in few replicates may be background.